# Results taken from ChEMBL document CHEMBL2176932, “De novo cyclic pseudopeptides containing aza-β3-amino acids exhibiting antimicrobial activities” (J Med Chem, 2012).
# Key:
# Assay type in all cases: functional
# Pseudomonas aeruginosa = assay: Antibacterial activity against Pseudomonas aeruginosa ATCC 27853 after 48 hrs by microtiter broth dilution method; details: ATCC 27853, 48 h
# Escherichia coli = assay: Antibacterial activity against Escherichia coli ATCC 25922 after 48 hrs by microtiter broth dilution method; details: ATCC 25922, 48 h
# Listeria monocytogenes = assay: Antibacterial activity against Listeria monocytogenes SOR 100 after 48 hrs by microtiter broth dilution method; details: SOR 100, 48 h
# Staphylococcus aureus = assay: Antibacterial activity against Staphylococcus aureus ATCC 25923 after 48 hrs by microtiter broth dilution method; details: ATCC 25923, 48 h
smiles,measurement,setting,value
CC[C@H](C)[C@H](NC(=O)CN)C(=O)NCC(=O)N[C@@H](C)C(=O)N[C@H](C(=O)N[C@@H](CC(C)C)C(=O)N[C@@H](CCCCN)C(=O)N[C@H](C(=O)N[C@@H](CC(C)C)C(=O)N[C@H](C(=O)N[C@H](C(=O)NCC(=O)N[C@@H](CC(C)C)C(=O)N1CCC[C@H]1C(=O)N[C@@H](C)C(=O)N[C@@H](CC(C)C)C(=O)N[C@H](C(=O)N[C@@H](CO)C(=O)N[C@@H](Cc1c[nH]c2ccccc12)C(=O)N[C@H](C(=O)N[C@@H](CCCCN)C(=O)N[C@@H](CCCNC(=N)N)C(=O)N[C@@H](CCCCN)C(=O)N[C@@H](CCCNC(=N)N)C(=O)N[C@@H](CCC(N)=O)C(=O)N[C@@H](CCC(N)=O)C(N)=O)[C@@H](C)CC)[C@@H](C)CC)[C@@H](C)O)[C@@H](C)O)C(C)C)C(C)C [MELITTIN],MIC,Pseudomonas aeruginosa,50 µM
same,MIC,Escherichia coli,6.25 µM
same,MIC,Listeria monocytogenes,3.12 µM
same,MIC,Staphylococcus aureus,25 µM
